{"source": "PubChem BioAssay (Tox21)", "note": "Where “and” joins values, the source holds several entries; their conditions need not be identical. Equal entries are not always repeated. The list shows a part of the results, in another mix than the full data. Records with an inconclusive call do not appear. Calls of active or inactive are those of the source. Unless noted, calls follow the shape of the dose curve; as a rule, active = well fitted cell-killing curve with a large enough effect in the repeat runs; inconclusive = weak or mixed curves, or effect the other way; inactive = no such curve, though single readings can be large or run the other way. % is scaled to controls: 0 for no effect and ±100 for the full control effect.", "data": [{"assay": "qHTS assay to identify small molecule antagonists of the vitamin D receptor (VDR) signaling pathway - cell viability counter screen (AID 743225); also: nearly all actives have a fitted effect of over 50% in size", "details": "VDR-bla HEK293T viability, CellTiter-Glo luminescence, 16 h; at 61 µM (top of the series)", "how_it_was_run": "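Compounds were pinned onto VDR-bla HEK 293T cells together with 1-alpha,25-dihydroxyvitamin D3 at 3 nM final. After 16 h at 37C and 5% CO2 plus the reporter readout, cell viability was measured by CellTiter-Glo luminescence (30 min, room temperature).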", "values": [{"smiles": "CCOC(=O)N1CCC(=O)CC1", "viability change, negative = cytotoxic": "inactive: 8.39%"}, {"smiles": "ClCCOP(OCCCl)OCCCl", "viability change, negative = cytotoxic": "inactive: -0.691%"}, {"smiles": "CCOP(=O)(Cl)Cl", "viability change, negative = cytotoxic": "inactive: -11.5% and inactive: 2.76%"}]}, {"assay": "qHTS assay to identify small molecule agonists of the NFkB signaling pathway (AID 1159509; active = well fitted curve in the direction sought with a large enough effect in the signal ratio in the repeat runs, not every such curve was filed as active; the % refers to the signal ratio)", "details": "NFkB-bla ME-180 cells, beta-lactamase FRET ratio, 5 h; at 61 µM (top of the series)", "how_it_was_run": "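Pathway activation was measured in ME-180 cells stably expressing beta-lactamase under NF-kB response element control. Substrate cleavage was read as the 460/530 nm emission shift after 5 hr compound incubation.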", "values": [{"smiles": "CCOP(=S)(Cl)OCC", "activation": "inactive: -0.293%"}, {"smiles": "O=[N+]([O-])c1ccccc1[N+](=O)[O-]", "activation": "inactive: -0.486%"}, {"smiles": "CCC(=O)N(c1ccccc1)C1CCNCC1", "activation": "inactive: 0.455%"}, {"smiles": "CCOC(=O)N1CCC(=O)CC1", "activation": "inactive: 0.362%"}, {"smiles": "ClCCOP(OCCCl)OCCCl", "activation": "inactive: -0.186%"}, {"smiles": "CCOP(=O)(Cl)Cl", "activation": "inactive: -0.0198% and inactive: 0.0063%"}]}, {"assay": "qHTS assay to identify small molecule agonists of the NFkB signaling pathway - cell viability counter screen (AID 1159515; calls by dose curve; also: nearly all actives have a fitted effect of over 55% in size)", "details": "NFkB-bla ME-180 viability, CellTiter-Glo luminescence, 5 h; at 61 µM (top of the series)", "how_it_was_run": "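Parallel cytotoxicity counter screen in ME-180 cells carrying an NFkB-response-element beta-lactamase reporter, 2,000 cells/well. Compound exposure lasted 5 hr at 37 C, 5% CO2. Cell viability was quantified by CellTiter-Glo luminescence.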", "values": [{"smiles": "CCOP(=S)(Cl)OCC", "activity, negative = cytotoxic": "inactive: -5.7%"}, {"smiles": "O=[N+]([O-])c1ccccc1[N+](=O)[O-]", "activity, negative = cytotoxic": "inactive: 13.4%"}, {"smiles": "CCC(=O)N(c1ccccc1)C1CCNCC1", "activity, negative = cytotoxic": "inactive: 0.892%"}, {"smiles": "CCOC(=O)N1CCC(=O)CC1", "activity, negative = cytotoxic": "inactive: 1.76%"}, {"smiles": "ClCCOP(OCCCl)OCCCl", "activity, negative = cytotoxic": "inactive: 7.06%"}, {"smiles": "CCOP(=O)(Cl)Cl", "activity, negative = cytotoxic": "inactive: 5.04% and inactive: -3.52%"}]}, {"assay": "qHTS assay to identify small molecule agonists of the endoplasmic reticulum stress response signaling pathway (AID 1159516; active = well fitted activation curve with a large enough effect in the signal ratio in the repeat runs, not every such curve was filed as active; the % refers to the signal ratio)", "details": "ESRE-bla HeLa, ER stress beta-lactamase reporter, 5 h; at 61 µM (top of the series)", "how_it_was_run": "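Using a HeLa line with an ESRE-driven beta-lactamase gene, agonist activity was measured by FRET substrate fluorescence (460 and 530 nm emission) after cells were treated with compounds for 5 hr at 37 C and 5% CO2.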", "values": [{"smiles": "CCOP(=S)(Cl)OCC", "activation": "inactive: 1.05%"}, {"smiles": "O=[N+]([O-])c1ccccc1[N+](=O)[O-]", "activation": "inactive: -5.61%"}, {"smiles": "CCC(=O)N(c1ccccc1)C1CCNCC1", "activation": "inactive: 0.883%"}, {"smiles": "CCOC(=O)N1CCC(=O)CC1", "activation": "inactive: -0.956%"}, {"smiles": "ClCCOP(OCCCl)OCCCl", "activation": "inactive: 1.2%"}, {"smiles": "CCOP(=O)(Cl)Cl", "activation": "inactive: -0.977% and inactive: -0.0866%"}]}, {"assay": "qHTS assay to identify small molecule agonists of the endoplasmic reticulum stress response signaling pathway - cell viability counter screen (AID 1159517; calls by dose curve; also: nearly all actives have a fitted effect of over 50% in size)", "details": "ESRE-bla HeLa viability, CellTiter-Glo luminescence, 5 h; at 61 µM (top of the series)", "how_it_was_run": "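ESRE-bla HeLa cells (1,500/well) were plated overnight at 37 C and exposed to compounds for 5 hr. After the 2 hr beta-lactamase substrate read, CellTiter-Glo went into the same wells, and luminescence was read after 30 min at room temperature.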", "values": [{"smiles": "CCOP(=S)(Cl)OCC", "activity change, negative = cytotoxicity": "inactive: -3.77%"}, {"smiles": "O=[N+]([O-])c1ccccc1[N+](=O)[O-]", "activity change, negative = cytotoxicity": "inactive: 3.55%"}, {"smiles": "CCOC(=O)N1CCC(=O)CC1", "activity change, negative = cytotoxicity": "inactive: 7.46%"}, {"smiles": "ClCCOP(OCCCl)OCCCl", "activity change, negative = cytotoxicity": "inactive: 18.9%"}, {"smiles": "CCOP(=O)(Cl)Cl", "activity change, negative = cytotoxicity": "inactive: -28.2% and inactive: 19.2%"}]}, {"assay": "qHTS assay to identify small molecule antagonists of the retinoid-related orphan receptor gamma (ROR-gamma) signaling pathway - cell viability counter screen (AID 1159520); also: nearly all actives have a fitted effect of over 50% in size", "details": "Tet-on RORgamma CHO cells viability, ATP luminescence, 16 h; at 92.4 µM (top of the series) unless noted", "how_it_was_run": "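Cytotoxicity was read from cellular ATP (CellTiter-Glo luminescence) after 16 hr at 37 C with 1 uM doxycycline induction. The inducer was added 2 hr after compound transfer to Tet-on ROR gamma CHO cells.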", "values": [{"smiles": "CCOP(=S)(Cl)OCC", "activity, negative = cytotoxicity": "inactive: -15.4%"}, {"smiles": "O=[N+]([O-])c1ccccc1[N+](=O)[O-]", "activity, negative = cytotoxicity": "inactive: -2.34% and inactive: -3.05%"}, {"smiles": "CCC(=O)N(c1ccccc1)C1CCNCC1", "activity, negative = cytotoxicity": "inactive: 5.06% [at 42.5 µM]"}, {"smiles": "CCOC(=O)N1CCC(=O)CC1", "activity, negative = cytotoxicity": "inactive: 3.94% [at 42.5 µM]"}, {"smiles": "ClCCOP(OCCCl)OCCCl", "activity, negative = cytotoxicity": "inactive: 0.818% and inactive: 5.75%"}, {"smiles": "CCOP(=O)(Cl)Cl", "activity, negative = cytotoxicity": "inactive: -1.64% and inactive: 3.57%"}, {"smiles": "ClCCNCCCl", "activity, negative = cytotoxicity": "inactive: 0.624%"}, {"smiles": "CC(C)OP(OC(C)C)OC(C)C", "activity, negative = cytotoxicity": "inactive: 9.4%"}]}]}
